Source: ChEMBL document CHEMBL1157172, “Rational design, synthesis, and in vivo evaluation of the antileukemic activity of six new alkylating steroidal esters” (Bioorg Med Chem, 2008)

Experiments:
Mus musculus = test: Acute toxicity in ip dosed BALB/c mouse after 30 days; type: organism-based; conditions: in vivo, 720 h
P388 [1] = test: Antitumor activity in BDF1 mouse bearing P388 cells assessed as mean survival days at 5 mg/kg/day, ip; conditions: route intraperitoneal
P388 [2] = test: Increase in median life span in BDF1 mouse bearing P388 cells at 5 mg/kg/day, ip relative to corn oil; conditions: route intraperitoneal
L1210 [3] = test: Antitumor activity in BDF1 mouse L1210 cells assessed as mean survival days at 5 mg/kg/day, ip; conditions: route intraperitoneal
L1210 [4] = test: Increase in median life span in BDF1 mouse L1210 cells at 5 mg/kg/day, ip relative to corn oil; conditions: route intraperitoneal

Structure (SMILES)	LD10 (Mus musculus) [mg/kg]	LD50 (Mus musculus) [mg/kg]	Survival (P388 [1]) [days]	Activity (P388 [2]) [%]	Survival (L1210 [3]) [days]	Activity (L1210 [4]) [%]
Cc1ccc(C(=O)O)cc1N(CCCl)CCCl	10	18	13.7	144	13.9	129
O=C(O)Cc1ccc(N(CCCl)CCCl)cc1	10	20	10.7	113	12.4	115
